We go through 1 molecule from ChEMBL document CHEMBL1138152, “Design and synthesis of novel hydrazide-linked bifunctional peptides as delta/mu opioid receptor agonists and CCK-1/CCK-2 receptor antagonists” (J Med Chem, 2006).

Protein sequences, listed by entry. Tags and fused reporters are not part of them. Lines headed by an entry give the natural chain unless they say otherwise; changes in a name come on top.
UniProt P32239: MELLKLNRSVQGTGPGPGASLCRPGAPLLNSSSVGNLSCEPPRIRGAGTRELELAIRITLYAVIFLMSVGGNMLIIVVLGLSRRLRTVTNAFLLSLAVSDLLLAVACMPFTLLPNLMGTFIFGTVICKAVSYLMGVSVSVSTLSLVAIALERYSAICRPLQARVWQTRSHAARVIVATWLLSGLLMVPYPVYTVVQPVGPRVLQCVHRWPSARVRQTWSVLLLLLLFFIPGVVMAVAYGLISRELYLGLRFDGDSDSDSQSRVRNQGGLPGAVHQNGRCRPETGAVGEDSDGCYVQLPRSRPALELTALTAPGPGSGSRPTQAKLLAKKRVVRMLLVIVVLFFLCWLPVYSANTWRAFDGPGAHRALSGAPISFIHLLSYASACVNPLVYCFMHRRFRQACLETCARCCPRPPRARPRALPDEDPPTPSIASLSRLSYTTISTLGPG
UniProt P32238, whole entry, looked up: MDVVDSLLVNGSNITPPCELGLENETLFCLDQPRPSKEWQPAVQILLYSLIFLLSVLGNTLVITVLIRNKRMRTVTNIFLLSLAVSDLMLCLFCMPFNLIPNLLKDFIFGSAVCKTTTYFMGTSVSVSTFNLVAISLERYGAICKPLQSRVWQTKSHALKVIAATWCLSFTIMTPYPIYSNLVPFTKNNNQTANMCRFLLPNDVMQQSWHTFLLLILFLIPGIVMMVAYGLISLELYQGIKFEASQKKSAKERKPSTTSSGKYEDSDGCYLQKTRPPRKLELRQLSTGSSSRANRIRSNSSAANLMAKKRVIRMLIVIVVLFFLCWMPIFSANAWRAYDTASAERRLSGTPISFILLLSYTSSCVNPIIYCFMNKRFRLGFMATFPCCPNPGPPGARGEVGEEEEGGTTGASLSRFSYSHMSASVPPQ

The target of this experiment is Cholecystokinin receptor (Homo sapiens) (UniProt P32239+P32238). The experiment is described as follows: Antagonist activity at CCK receptor by inhibition of CCK8-induced muscle contraction in unstimulated GPI/LMMP. To be noted: Cavia porcellus; target entry is the homologue from another species. The experiment is classed as functional. In short, it runs like this: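 Male Hartley guinea pig ileum LMMP strips, 1 g tension, oxygenated Krebs bicarbonate buffer, 37 °C; 67 mM KCl sets maximal contractility. Initial noncumulative CCK-8 dose-response curve built. Test compound added without electrical stimulation; 3 min later the CCK-8 curve was rebuilt at an antagonist dose giving about a 3-fold rightward shift. Ke is the antagonist concentration halving CCK-8 activity.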

For `CCCC[C@H](NC(=O)[C@H](CC(=O)O)NC(=O)[C@H](Cc1ccccc1)NN[C@@H](Cc1ccccc1)C(=O)NCC(=O)N[C@H](C)C(=O)N[C@@H](Cc1ccc(O)cc1)C(=O)O)C(=O)N[C@H](Cc1cn(C(=O)OC2C3CC4CC(C3)CC2C4)c2ccccc12)C(=O)O` (stereo partly specified), the Ke was determined as 150 nM.
